The structures appear in SMILES notation. Only a part is listed here, and it is no random draw. Activity calls are given as the source filed them.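 How the source made its calls: active means mean replicate activation of at least 50% with a set share of replicates each reaching 50%; inconclusive means only one of those two conditions met; inactive means mean below 50% and too few replicates reaching it.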

Drawing on PubChem BioAssay AID504408 (Broad Institute, 2011), this text covers activation for 100 compounds.

The assay in a line: HSF-1 response element luciferase induction – NIH3T3-HGL cells, MG132 stress, luminescence, single point, primary screen (AID 504408).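 Further: 0% = median of the neutral control wells and 100% = twice that signal.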 The following applies: NIH3T3-HGL HSF-1 luciferase reporter, MG132, 8 h; at 9 µM; hits give high values; 100% = twice DMSO control signal. (In general: A reporter such as luciferase makes a cellular process visible.)
As for `O=C(/C=C/c1ccccc1)OC1CN2CCC1CC2` (stereo not given), the activation was inactive: -11.5%. With `CN(C)C1(CNC(=O)c2ccc(S(C)(=O)=O)cc2)CCCCC1` the figure was inactive: -1.56%. For the compound `CC1CCC(C(C)C)C(OP(=O)(Nc2ccccn2)c2ccccc2)C1` (stereo not given), the activation is inactive: 6.33%. With `Cc1ccc(C(=O)OC2CN3CCC2CC3)cc1` (stereo not given) the figure was inactive: -2.85%; with `Cc1nn(-c2ccccc2)c2c1P(=O)(N1CCOCC1)N(C)C(c1ccccc1)=N2` (stereo not given), inactive: 1.32%. The result for `Cc1ccc(OCC(=O)OC2CN3CCC2CC3)cc1` (stereo not given) reads inactive: -1.56%; that for `O=[As](O)(c1cccs1)c1cccs1`, inactive: 35%.

For the compound `Nc1cccc([As](=O)(O)c2ccccc2)c1`, the activation is inactive: 4.31%. With `O=P1(Nc2ncccn2)COc2ccccc2OC1` the figure was inactive: -3.84%; with `CC(C)(C)C(=O)NC(Sc1ncccn1)C(Cl)(Cl)Cl` (stereo not given), inactive: -13.5%; with `Clc1n[nH]nc1-c1nn[nH][15n]1`, inactive: 1.48%. With `CN(CCCl)Cc1cc(Cl)c(NC2=NCCN2)c(Cl)c1` the figure was inactive: -16.6%; with `CCOP(=O)(Nc1ccc(C)cn1)OCC`, inactive: 5.76%; with `CCOP(=O)(NC(=NC(C)c1ccccc1)NC(C)c1ccccc1)OCC` (stereo not given), inactive: 19.5%. The result for `O=P1(Nc2ccccn2)COc2ccccc2OC1` reads inactive: -5.05%. Turning to `CCC1=CC2Cc3nc4ccc(Cl)cc4c(N)c3C(C1)C2` (stereo not given), the activation was inactive: 5.05%.

Turning to `CC1(CBr)Cn2c(nc3ccccc3c2=O)S1` (stereo not given), the activation is inactive: 1.53%.

Consider `O=[As](O)(c1ccccc1Br)c1ccccc1Br`, for which the activation was inactive: 2.86%.

Take `CC(C)/C=N\N=C(\N)N[N+](=O)[O-]`: the activation is inactive: -1.34%. With `CN(C(=O)Cc1ccc(Cl)c(Cl)c1)[C@@H]1CCCC[C@H]1N1CCCC1` the figure was inactive: -6.18%; with `COc1ccccc1CNC(=O)COC(=O)C(O)(c1ccccc1)c1ccccc1`, inactive: -10.8%; with `O=[As](O)(c1cccc(O)c1)c1cccc(O)c1`, inactive: -8.88%. On to `Cc1cccc(OCC(=O)OC2CN3CCC2CC3)c1` (stereo not given), for which the activation is inactive: 0.337%.

For `CS(=O)(=O)c1ccc(Cl)c(NC(=O)COC(=O)C(O)(c2ccccc2)c2ccccc2)c1`, the activation is inactive: -16%. In the case of `COc1cc(C(=O)NCC2(N3CCOCC3)CCCCC2)cc(Cl)c1OC(C)C`, the activation was inactive: -5.88%. With `O=[As](O)(O)c1cccnc1` the figure was inactive: -8.25%.

Regarding `O=C(OC1CN2CCC1CC2)c1ccc(Cl)cc1` (stereo not given), the activation was inactive: 12.8%. With `CCOP(=O)(Nc1cccc2ccccc12)OCC` the figure was inactive: -16.1%; with `COc1cc(C2NCCC3(OCCO3)C2(C)C)cc(OC)c1OC` (stereo not given), inactive: -4.93%. In the case of `CCCOP(=S)(Nc1nc(N)cc(=O)[nH]1)OCCC`, the activation is inactive: -7.34%. The result for `Cc1ccc(NCCc2c([N+](=O)[O-])cc([N+](=O)[O-])cc2[N+](=O)[O-])cc1` reads inactive: 20.2%.

`Nc1cccc2c([As](=O)(O)O)cccc12`: the activation was inactive: -9.1%. With `Nc1ccccc1[As](=O)(O)c1ccccc1` the figure was inactive: 8.64%. Take `O=C(O)COc1ccc([As](=O)(O)O)cc1[N+](=O)[O-]`: the activation was inactive: 3.11%. For `CS(=O)(=O)c1cc([N+](=O)[O-])c2no[n+]([O-])c2c1`, the activation was inactive: -11.6%. With `O=P(Nc1nccs1)(c1ccccc1)c1nc2ccccc2s1` (stereo not given) the figure was inactive: -2.65%; with `O=P(Nc1nccs1)(Oc1ccccc1)Oc1ccccc1`, inactive: -4.43%; with `CCOP1(=S)c2c(C)nn(CCC#N)c2N=C(c2ccccc2F)N1C` (stereo not given), inactive: 32.8%.

Regarding `CN(C(=O)Cc1ccc(Cl)c(Cl)c1)[C@H]1CC[C@@]2(CCCO2)C[C@@H]1N1CCCC1`, the activation was inactive: -2.05%. For the compound `CN(C)C(=O)c1cc([N+](=O)[O-])cc2c1-c1c(cc([N+](=O)[O-])cc1[N+](=O)[O-])C2=O`, the activation was inactive: -2.02%. On to `O=[N+]([O-])c1ccc2c(c1)nnn2O`, for which the activation was inactive: 29.3%. The result for `CCOP1(=S)c2c(C)nn(CCC#N)c2N=C(c2ccc(F)cc2)N1C` (stereo not given) reads inactive: 1.33%. The result for `CN(C(=O)Cc1ccccc1)[C@@H]1CC[C@]2(CCCO2)C[C@H]1N1CCCC1` reads inactive: 13.2%; that for `N#CCCN(C(=O)COC(=O)C(O)(c1ccccc1)c1ccccc1)c1ccc(F)cc1`, inactive: 4.21%; that for `NC(=O)Nc1ccc([As](=O)(O)O)cc1`, inactive: -5.01%. On to `Cc1ccc2nc3c(c(C)c2c1)CC(C(Cl)Cl)S3` (stereo not given), for which the activation was inactive: 42%. The result for `Cc1ccc(OP(=O)(Nc2ccc([N+](=O)[O-])cn2)Oc2ccc(C)cc2)cc1` reads inactive: 2.88%; that for `C[As](=O)(O)c1cccc(C(=O)O)c1`, inactive: -1.37%. The result for `O=[As](O)(c1ccc(O)cc1)c1ccccc1O` reads inactive: 0.309%; that for `O=[N+]([O-])c1cc([N+](=O)[O-])c(-c2ccn[nH]2)s1`, inactive: 48%; that for `CCN(CC)C(=S)SC(NC=O)C(Cl)(Cl)Cl` (stereo not given), inactive: -22.7%. With `CC(C)NC(=O)NP(=O)(Oc1ccccc1)Oc1ccccc1` the figure was inactive: 0.905%.

Turning to `CC(C)c1ccc(OP(=O)(Nc2ccccn2)Oc2ccccc2F)cc1` (stereo not given), the activation was inactive: 0.732%.

On to `ClCCSc1nnc(-c2cccnc2)o1`, for which the activation was inactive: 8.05%. Take `COc1cc(I)ccc1[As](=O)(O)O`: the activation is inactive: 3.77%. With `COc1ccc2nc(NP(=O)(c3ccccc3)c3ccccc3)sc2c1` the figure was inactive: -5.94%; with `Cc1cc(=O)[nH]c(N[N+](=O)[O-])n1`, inactive: 9.24%. With `O=C(OC1CN2CCC1CC2)C12CC3CC(CC(C3)C1)C2` (stereo not given) the figure was inactive: -12.5%; with `Cc1c2c(nc3ccccc13)SC(C(Cl)Cl)C2` (stereo not given), inactive: 24.7%. With `COc1ccc(N/C(=N/P(=O)(N2CCOCC2)N2CCOCC2)N2CCOCC2)cc1` the figure was inactive: 5.68%; with `O=C(Nc1ccncc1[N+](=O)[O-])c1ccc([N+](=O)[O-])cc1[N+](=O)[O-]`, inactive: 2.37%; with `O=C(COc1ccccc1)OC1CN2CCC1CC2` (stereo not given), inactive: 3.25%. Turning to `COP1(=S)c2c(C)nn(CCC#N)c2N=C(c2ccc(F)cc2)N1C` (stereo not given), the activation is inactive: 8.02%. The result for `CCC(C)N(CC(C)C)C(=S)SC(NC(C)=O)C(Cl)(Cl)Cl` (stereo not given) reads inactive: 34.7%; that for `CCOC(=O)c1ccc(NC(=O)C(C)(CCl)SC)cc1` (stereo not given), inactive: 4.46%.

For the compound `O=C(OC1CN2CCC1CC2)c1cccc([N+](=O)[O-])c1` (stereo not given), the activation was inactive: -8.91%. As for `Cc1cc(SC(NC(=O)c2ccccc2)C(Cl)(Cl)Cl)nc(C(C)C)n1` (stereo not given), the activation is inactive: -1.6%. With `CCCCOc1ccc(C(=O)NCC2(N3CCCCC3)CCCCC2)cc1OC` the figure was inactive: 7.25%; with `CCOC(=O)Nc1ccc([As](=O)(O)O)c(O)c1`, inactive: 0.654%; with `O=[N+]([O-])c1ccc(Nc2ccc(Oc3ccc([N+](=O)[O-])cc3[N+](=O)[O-])cc2)c([N+](=O)[O-])c1`, inactive: 2.56%. As to `O=P(Nc1ccccn1)(c1cccc2ccccc12)c1cccc2ccccc12`, the activation was inactive: -0.357%.

For `Cc1cc(SC(NC=O)C(Cl)(Cl)Cl)ncn1` (stereo not given), the activation was inactive: 3.88%. With `CCOC(=O)Nc1cccc([As](=O)(O)O)c1`, the activation is inactive: -8.65%. As for `O=C(Nc1cc([As](=O)(O)O)ccc1O)c1ccccc1`, the activation was inactive: 14.1%.

`O=[N+]([O-])c1cccc(NC2=NCC(CBr)S2)c1` (stereo not given): the activation is inactive: 12.4%. For the compound `O=C(O)CNc1ccc([As](=O)(O)O)cc1`, the activation is inactive: -2.59%.

As for `CC(C)(C)C(=O)NC(Sc1ccncn1)C(Cl)(Cl)Cl` (stereo not given), the activation is inactive: 2.2%. On to `O=[N+]([O-])c1ncn(CCn2ncnc2[N+](=O)[O-])n1`, for which the activation is inactive: -8.96%. The result for `O=[N+]([O-])c1cccc2n[nH]nc12` reads inactive: 6.99%; that for `CC(=O)N1C2C3N(C(C)=O)C1C1N(C(C)=O)C(C(N1C(C)=O)N3C(C)=O)N2C(C)=O`, inactive: -7.92%. With `CCc1nc2c(n1)c1c(non1O)c1c2no[n+]1[O-]` the figure was active: 149%; with `O=[N+]([O-])c1cc([N+](=O)[O-])c(CCNc2ccccc2)c([N+](=O)[O-])c1`, inactive: 6.42%; with `Cc1ccc(NP(=O)(Oc2ccccc2)Oc2ccccc2)nc1`, inactive: 17.8%. With `COc1ccc(C2=NCC(CBr)S2)cc1` (stereo not given) the figure was inactive: -14.5%; with `CN(C)C(=O)OCCc1n(C)cc[n+]1C`, inactive: -18.8%. For `CC(C)=N/N=C(\N)N[N+](=O)[O-]`, the activation is inactive: 1.57%. With `CC1CCN(C(=O)Oc2c(Cl)cc(Cl)c3cccnc23)CC1` the figure was inactive: 12.6%; with `C[N+]1=C2C=CC=CC=C2SC12C([N+](=O)[O-])=CC([N+](=O)[O-])=C[C-]2[N+](=O)[O-]` (stereo not given), inactive: 22.5%; with `Nc1ccc([As](=O)(O)c2ccc(N)cc2)cc1`, inactive: -3.35%. With `CCN(/C(=N/P(=O)(N1CCOCC1)N1CCOCC1)N1CCOCC1)c1ccc(OC)cc1` the figure was inactive: 18.9%; with `Cc1ccc(OP(=O)(Nc2nccs2)Oc2ccc(C)cc2)cc1`, inactive: 12.8%; with `COc1ccccc1OP(=O)(Nc1ccc(C)cn1)Oc1ccccc1OC`, inactive: 13.7%.

In the case of `Clc1ccc(Cl)c(NC2=NCC(CBr)S2)c1` (stereo not given), the activation was inactive: -3.76%. The result for `CN1CCCC(OC(=O)C(c2ccccc2)c2ccccc2)C1` (stereo not given) reads inactive: -4.6%. The result for `NC(=O)c1cc([N+](=O)[O-])cc([N+](=O)[O-])c1N` reads inactive: -8.67%; that for `Cc1ccc(N/C(=N/P(=O)(N2CCOCC2)N2CCOCC2)N2CCOCC2)cc1`, inactive: 4.97%; that for `CC(C)CC(=O)NC(Sc1ccc(Cl)cc1)C(Cl)(Cl)Cl` (stereo not given), inactive: 3.11%. With `Nc1cc(N)c2nonc2c1[N+](=O)[O-]` the figure was inactive: 10.5%. On to `Cc1c2non([O-])c-2c(C)[n+](=O)[n+]1[O-]`, for which the activation is inactive: -4.8%.

Consider `O=C(NC(Sc1ccncn1)C(Cl)(Cl)Cl)c1ccccc1` (stereo not given), for which the activation is inactive: 4.14%.
